miR-122 sensor – miR-122 inhibition in Huh7 cells. Huh7 miR-122 Renilla luciferase sensor, 48 h; neutral wells = 0, positive control = 100. activation (reporter increase), % at 12.5 µM. 340,000 tested, 0.3% active;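 active = mean replicate activation score at least 90 and every replicate individually at or above 90; inconclusive = only one of the two criteria met; inactive = neither criterion met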;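 note: higher luciferase means less miR-122 activity so hits act as miR-122 inhibitors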
Cneo AK release – causes C. neoformans cell lysis; adenylate kinase release luminescence, 4 h; normalised: neutral wells 0, clomiphene wells 100; lysis activity, % at 15 µM; 360,000 tested, 0.2% active; AID 651654;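 active = mean lysis activity across replicates of at least 80%, whatever share of replicates individually reach that level; inactive = mean lysis activity below 80%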
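read-out = cell lysis signal | test system = log-phase Cryptococcus neoformans yeast cells | input = cells at 5 × 10^6 per mL | medium = fresh YPD growth medium | signal = luminescent adenylate kinase detection reagent | timing = 4 h at 37 °C static, read 1 h later | dosing = single dose | controls = Clomiphene as positive lysis control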
HIV Env fusion – inhibitors of HIV Env-mediated cell fusion. 360,000 tested, 1.1% active. HeLa-JRFL Env/CEM21 cell fusion, luciferase. AID 651610. inhibition, % at 12.3 µM;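 active = mean replicate inhibition score of at least 50 and every replicate individually at or above 50; inconclusive = only one of the two criteria met; inactive = mean below 50 and not all replicates reaching 50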;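 note: 0% = plate neutral controls and 100% = maraviroc near 300 nM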
PGC1a acetyl inh – modulators of PGC1a acetylation; inhibition, % at 15.6 µM; U2OS PGC1a acetylation, AlphaScreen anti-acetyl-lysine; with virally co-expressed GCN5 acetyltransferase; 350,000 tested, 0.17% active;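 active = every replicate shows inhibition of at least 40%; inconclusive = mean inhibition at least 40% but some replicate below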;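 note: 0% = neutral control wells and 100% = positive control wells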
UUG fidelity – yeast start codon fidelity modulation; activity score, % at 18.7 µM; actives 0.13% (n = 350,000); S. cerevisiae UUG-firefly luciferase reporter, luminescence/redox ratio; AID 602363;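 active means replicate mean at a twofold rise or more, about +100% in these data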;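 further: firefly luciferase made from a UUG start codon reports start codon fidelity; reporter light over untreated wells divided by growth signal over untreated wells; some hits fall short of that in this replicate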
FN deposit inh – fibronectin deposition inhibition | inhibition, % at 12.6 µM | AID 743247 | AH1F fibroblasts, Alexa488-fibronectin deposition fluorescence, overnight | 350,000 tested, 0.086% active;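 active = mean inhibition across replicates of 30% or more, regardless of how many single replicates reach that level; inconclusive = mean under 30% yet at least half of replicates reach 30%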;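 note: positive control wells lacked labelled fibronectin entirely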
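Material – AH1F fibroblast monolayer, labelled fibronectin deposition · Reagent – labelled fibronectin 24 nM · Timing – 1 h adhesion, overnight exposure · Measured by – fluorescence at 485 nm excitation, 525 nm emission · Read-out – inhibition of fibronectin deposition signal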
* hit, by the source's call; ! = not active in a repeat; [ ] = remark or other dose. Only some compounds are listed: those with a hit (about 1.5% of all), similar ones and a draw of the others.

A first look, 4 compounds:
O=C(Nc1cccc2ccccc12)/C(=C/c1ccc([N+](=O)[O-])cc1)NC(=O)c1ccccc1 was read as miR-122 sensor 238.0*, Cneo AK release -7.7, HIV Env fusion -176.9, PGC1a acetyl inh 2.3, UUG fidelity -13.6 and FN deposit inh -0.2.
For Cc1ccc(OCC(=O)NCc2ccccc2)c([N+](=O)[O-])n1 the results were miR-122 sensor 0.2, Cneo AK release -8.6, HIV Env fusion 8.6, PGC1a acetyl inh 4.0, UUG fidelity 2.9 and FN deposit inh 3.4.
Screening O=P(c1ccccc1)(c1ccccc1)C(c1ccccn1)P(=O)(c1ccccc1)c1ccccc1 returned miR-122 sensor 21.0, Cneo AK release -0.8, HIV Env fusion 66.4*, PGC1a acetyl inh -9.6, UUG fidelity -7.4 and FN deposit inh 5.0.
For O=P(c1ccccc1)(c1ccccc1)C(O)c1ccccn1 (stereo not given) the results were miR-122 sensor -6.4, Cneo AK release -1.6, HIV Env fusion 5.7, PGC1a acetyl inh 8.6, UUG fidelity -5.9 and FN deposit inh -9.2.

This part in full, repeating the preview:
O=C(Nc1cccc2ccccc12)/C(=C/c1ccc([N+](=O)[O-])cc1)NC(=O)c1ccccc1 was read as miR-122 sensor 238.0*, Cneo AK release -7.7, HIV Env fusion -176.9, PGC1a acetyl inh 2.3, UUG fidelity -13.6 and FN deposit inh -0.2.
For Cc1ccc(OCC(=O)NCc2ccccc2)c([N+](=O)[O-])n1 the results were miR-122 sensor 0.2, Cneo AK release -8.6, HIV Env fusion 8.6, PGC1a acetyl inh 4.0, UUG fidelity 2.9 and FN deposit inh 3.4.
Screening O=P(c1ccccc1)(c1ccccc1)C(c1ccccn1)P(=O)(c1ccccc1)c1ccccc1 returned miR-122 sensor 21.0, Cneo AK release -0.8, HIV Env fusion 66.4*, PGC1a acetyl inh -9.6, UUG fidelity -7.4 and FN deposit inh 5.0.
For O=P(c1ccccc1)(c1ccccc1)C(O)c1ccccn1 (stereo not given) the results were miR-122 sensor -6.4, Cneo AK release -1.6, HIV Env fusion 5.7, PGC1a acetyl inh 8.6, UUG fidelity -5.9 and FN deposit inh -9.2.
N#Cc1cccc(-c2ccc(C3[C@@H]4CN(Cc5ccccc5F)C[C@H]3N4)cc2)c1 (stereo not given in full) was read as PGC1a acetyl inh 47.6*! and FN deposit inh 4.0.
`Cc1noc(C)c1NC(=O)Nc1ccc2c(c1)C(=O)N([C@H](C)CO)C[C@H](C)[C@@H](CN(C)S(C)(=O)=O)OCCCC[C@@H](C)O2` gave miR-122 sensor 2.7[16.7 µM], Cneo AK release -1.3, HIV Env fusion -29.6[16.7 µM], PGC1a acetyl inh 19.3 and UUG fidelity 11.7.
`CCOc1ccc(S(=O)(=O)N2CCCC(C(=O)NCc3cccnc3)C2)cc1C` (stereo not given) gave miR-122 sensor -5.9, HIV Env fusion 5.0, PGC1a acetyl inh 0.1 and FN deposit inh 1.1.
`Cc1cc(F)ccc1S(=O)(=O)Nc1ccccc1C(=O)NC1CCN(Cc2ccccc2)CC1` gave HIV Env fusion -8.8 and FN deposit inh 1.5.
For Cc1cc(Oc2ccc(C#N)cc2)nc(NCc2ccccc2)n1 the results were miR-122 sensor -6.0, Cneo AK release -1.0, HIV Env fusion 60.6*, PGC1a acetyl inh 8.6, UUG fidelity -20.0 and FN deposit inh 4.6.
`COC(=O)c1ccc(Oc2cc(C)nc(NCc3ccccc3)n2)cc1` gave miR-122 sensor -0.3, Cneo AK release -1.2, PGC1a acetyl inh -7.3 and UUG fidelity -3.2.
COc1ccccc1-c1ccc(OCCCN2CCC(C(O)(c3ccccc3)c3ccccc3)CC2)cc1 was read as HIV Env fusion 97.4* and FN deposit inh 5.1.
OC(c1ccccc1)(c1ccccc1)C1CCN(CCCOc2ccc(-c3ccc(F)cc3F)cc2)CC1 was read as HIV Env fusion 63.0* and FN deposit inh 4.0.
For O=C(Nc1ccccc1Cl)c1ccccc1CC(O)(c1ccccc1)c1ccccc1 the results were HIV Env fusion 92.7* and FN deposit inh -0.3.
Screening CC(C)(C)c1ccc(C(=O)Nc2ccccc2Cl)cc1 returned HIV Env fusion -116.7 and FN deposit inh 2.9.
For CCCCCN(C(=O)CCc1cn(CCCCC)c2ccccc12)c1ccc(Oc2cccnc2)cc1 the results were HIV Env fusion 57.9* and FN deposit inh 13.8.
For N#CC(c1nc2ccccc2nc1N1CCCC1)S(=O)(=O)c1ccccc1 (stereo not given) the results were miR-122 sensor 16.6, Cneo AK release -2.1, HIV Env fusion 15.5, PGC1a acetyl inh 1.1 and UUG fidelity -13.6.
Cc1cccc(S(=O)(=O)C(C#N)c2nc3ccccc3nc2N2CCCC2)c1 (stereo not given) was read as miR-122 sensor 118.6*, Cneo AK release -0.6, PGC1a acetyl inh 13.6 and UUG fidelity -7.9.
COc1ccc(S(=O)(=O)Nc2ccccc2C(=O)Nc2nc(-c3ccc(F)cc3)cs2)cc1OC was read as HIV Env fusion 65.8* and FN deposit inh -8.3.
For C[C@@H]1CCCCO[C@H](CN(C)S(=O)(=O)c2ccc(Cl)cc2)[C@@H](C)CN([C@@H](C)CO)C(=O)c2cc(NC(=O)Nc3ccc(F)cc3)ccc2O1 the results were miR-122 sensor -8.3[16.7 µM], Cneo AK release 2.9, HIV Env fusion 8.6[16.7 µM], PGC1a acetyl inh 14.9, UUG fidelity 0.9 and FN deposit inh 2.3.
Screening CCC(=O)Nc1ccc(-c2ccc(N3CCN(C)CC3)nn2)cc1 returned miR-122 sensor 1.8, Cneo AK release 5.5, PGC1a acetyl inh 14.3 and UUG fidelity -11.0.
CC(=O)[C@H]1CC[C@H]2[C@@H]3CCC4=CC(=O)CC[C@]4(C)[C@H]3CC[C@]12C was read as miR-122 sensor -5.7, Cneo AK release -4.4, HIV Env fusion -10.1, PGC1a acetyl inh -17.3, UUG fidelity 3.3 and FN deposit inh -9.5.
Screening CC12CCC(=O)C=C1CCC1C2CCC2(C)C1CC1C3C(=O)N(Cc4ccccc4)C(=O)C3CC(=O)C12 (stereo not given) returned Cneo AK release -1.7, HIV Env fusion 60.8*, PGC1a acetyl inh -1.5, UUG fidelity -2.5 and FN deposit inh 8.1.
For C/C=C/c1ccc([C@@H]2[C@H](CO)N[C@H]2CNC(=O)c2ccccc2F)cc1 the results were miR-122 sensor 0.0[16.7 µM], Cneo AK release 6.1, PGC1a acetyl inh -5.3, UUG fidelity -12.6 and FN deposit inh -1.8.
For CC(=O)c1cccc(NC(=O)Nc2cccnc2)c1 the results were miR-122 sensor 0.1, Cneo AK release -4.8, HIV Env fusion inconclusive, PGC1a acetyl inh 50.3* and UUG fidelity -12.8.
`CC(=O)c1cccc(NC(=O)Nc2ccc(C(=O)N3CCOCC3)cc2)c1` gave miR-122 sensor 5.3, Cneo AK release -3.2, HIV Env fusion 63.1*, PGC1a acetyl inh 14.1, UUG fidelity 11.9 and FN deposit inh -7.0.
CC1CCc2nc(NC(=O)C3COc4ccccc4O3)sc2C1 (stereo not given) was read as Cneo AK release -27.0, HIV Env fusion -125.4, UUG fidelity -85.7 and FN deposit inh -2.2.
For C/C(=N\NC(=O)CN1CCCCC1)c1cccc([N+](=O)[O-])c1 the results were HIV Env fusion -8.4 and FN deposit inh -1.1.
C/C(=N\NC(=O)CN1CCCCC1)c1ccccc1O was read as miR-122 sensor 10.1, Cneo AK release -2.8, HIV Env fusion 0.6, PGC1a acetyl inh 43.8*, UUG fidelity -16.9 and FN deposit inh 12.3.
For CCCCN(C)c1c(C)nc2ccc(C(=O)N(CC)CCN(C)C)cn12 the results were miR-122 sensor -11.7, Cneo AK release 0.3, HIV Env fusion 62.6*, PGC1a acetyl inh -0.8, UUG fidelity -12.0 and FN deposit inh 15.4.
CCCCN(C=O)c1c(CC)nc2ccc(C(=O)N(CC)CCN(C)C)cn12 was read as miR-122 sensor -1.5, Cneo AK release -0.1, HIV Env fusion -9.6, PGC1a acetyl inh 5.1, UUG fidelity -23.6 and FN deposit inh -2.2.

Screening results as filed in PubChem BioAssay.
